From patent US12583836B2 (Anaxis Pharma Pty Ltd, priority 2020, dated 2026)

Amino acid sequences for entries named in this document (tags omitted). A change or cut given only in a name is not applied to a line headed by its entry.
UniProt Q9Y572: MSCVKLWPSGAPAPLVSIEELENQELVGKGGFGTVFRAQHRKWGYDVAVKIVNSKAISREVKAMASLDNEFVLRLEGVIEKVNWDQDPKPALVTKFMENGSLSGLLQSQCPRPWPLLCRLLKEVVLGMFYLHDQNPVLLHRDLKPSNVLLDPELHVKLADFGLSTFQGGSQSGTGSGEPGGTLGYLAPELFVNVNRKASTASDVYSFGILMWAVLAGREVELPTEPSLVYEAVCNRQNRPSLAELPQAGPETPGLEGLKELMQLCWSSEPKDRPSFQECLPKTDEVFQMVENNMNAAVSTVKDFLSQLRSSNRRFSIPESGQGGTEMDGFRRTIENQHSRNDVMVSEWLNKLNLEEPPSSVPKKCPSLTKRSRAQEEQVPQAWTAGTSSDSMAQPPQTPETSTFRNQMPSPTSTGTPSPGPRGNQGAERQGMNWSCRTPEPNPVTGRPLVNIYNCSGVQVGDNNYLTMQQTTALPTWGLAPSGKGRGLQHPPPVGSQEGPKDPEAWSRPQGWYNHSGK

Target: T1, RIP3 (Homo sapiens, UniProt Q9Y572)
T1 construct: purchased DiscoverX (KINOMEscan service); host or cells: E. coli BL21-derived (T7 phage) or HEK293
Assay: KINOMEscan binding assay, RIP3
Conditions: equilibrium dissociation constant, class symbols

Kd [µM]	Structure (SMILES)
1 to 30	NC(=O)c1c(-c2ccc(NS(=O)(=O)Cc3ccccc3Cl)cc2)n[nH]c1Nc1cccc(C(F)(F)F)n1 [Compound 58, 3-(4-(((2-chlorophenyl)methyl)sulfonamido)phenyl)-5-((6-(trifluoromethyl)pyridin-2-yl)amino)-1H-pyrazole-4-carboxamide]
> 30	C[C@H](Oc1cc(-c2n[nH]c(Nc3cnccn3)c2C(N)=O)ccc1NS(=O)(=O)CC(F)(F)F)c1ccc(Cl)cc1 [Compound 259, 3-{3-[(1S)-1-(4-chlorophenyl)ethoxy]-4-(2,2,2-trifluoroethane-sulfonamido)phenyl}-5-[(pyrazin-2-yl)amino]-1H-pyrazole-4-carboxamide]
> 30	CCS(=O)(=O)Nc1ccc(-c2n[nH]c(Nc3cncc(C(F)(F)F)n3)c2C(N)=O)cc1OCc1ccc(F)cc1 [Compound 17, 3-(4-(ethylsulfonamido)-3-((4-fluorobenzyl)oxy)phenyl) 5-((6-(trifluoromethyl)pyrazin-2 yl)amino)-1H-pyrazole-4 carboxamide]
> 30	CCS(=O)(=O)Nc1ccc(-c2n[nH]c(Nc3ccn(C)n3)c2C(N)=O)cc1 [Compound 91, 3-(4-(ethylsulfonamido)phenyl)-5-((1-methyl-1H-pyrazol-3-yl)amino)-1H-pyrazole-4-carboxamide]
1 to 30	COCCOc1cc(Nc2[nH]nc(-c3ccc(NS(=O)(=O)C(F)(F)F)cc3)c2C(N)=O)ccn1 [Compound 114, 5-((2-(2-methoxyethoxy)pyridin-4-yl)amino)-3-(4-((trifluoromethyl)sulfonamido)phenyl)-1H-pyrazole-4-carboxamide]
> 30	Cc1ccc(CS(=O)(=O)Nc2ccc(-c3n[nH]c(Nc4ccccn4)c3C(N)=O)cc2)cc1 [Compound 132, 5-(pyridin-2-ylamino)-3-(4-((p-tolylmethyl)sulfonamido)phenyl)-1H-pyrazole-4-carboxamide]
> 30	CCS(=O)(=O)Nc1ccc(-c2n[nH]c(Nc3cnccn3)c2C(N)=O)cc1OCCc1ccccc1 [Compound 210, 3-(4-(ethylsulfonamido)-3-phenethoxyphenyl)-5-(pyrazin-2-ylamino)-1H-pyrazole-4-carboxamide]
> 30	CCS(=O)(=O)Nc1ccc(-c2n[nH]c(Nc3cnccn3)c2C(N)=O)cc1OCc1ccc(Cl)c(F)c1 [Compound 166, 3-(3-((4-chloro-3-fluorobenzyl)oxy)-4-(ethylsulfonamido)phenyl)-5-(pyrazin-2-ylamino)-1H-pyrazole-4-carboxamide]
> 30	NC(=O)c1c(-c2ccc(NS(=O)(=O)CC(F)(F)F)c(OCc3ccc(Cl)cc3)c2)n[nH]c1Nc1ccccn1 [Compound 269, 3-{3-[(4-chlorophenyl)methoxy]-4-(2,2,2-trifluoroethanesulfonamido)phenyl}-5-[(pyridin-2-yl)amino]-1H-pyrazole-4-carboxamide]
> 30	NC(=O)c1c(-c2ccc(NS(=O)(=O)CC(F)F)c(OCc3ccc(F)cc3)c2)n[nH]c1Nc1cccc(C(F)(F)F)n1 [Compound 178, 3-(4-((2,2-difluoroethyl)sulfonamido)-3-((4-fluorobenzyl)oxy)phenyl)-5-((6-(trifluoromethyl)pyridine-2-yl)amino)-1H-pyrazole-4-carboxamide]
> 30	CCS(=O)(=O)Nc1ccc(-c2n[nH]c(Nc3ccccn3)c2C(N)=O)cc1OCC1CCCC1 [Compound 36, 3-(3-(cyclopentylmethoxy)-4-(ethylsulfonamido)phenyl)-5-(pyridin-2-ylamino)-1H-pyrazole-4-carboxamide]
> 30	NC(=O)c1c(-c2ccc(NS(=O)(=O)Cc3ccc(C(F)(F)F)cc3)cc2)n[nH]c1Nc1cnccn1 [Compound 76, 5-[(pyrazin-2-yl)amino]-3-(4-{[4-(trifluoromethyl)phenyl]methanesulfonamido}phenyl)-1H-pyrazole-4-carboxamide]
> 30	CCS(=O)(=O)Nc1ccc(-c2n[nH]c(Nc3cnc(C(F)(F)F)cn3)c2C(N)=O)cc1OCc1ccc(F)cc1 [Compound 9, 3-(4-(ethylsulfonamido)-3-((4-fluorobenzyl)oxy)phenyl) 5-((5-(trifluoromethyl)pyrazin-2 yl)amino)-1H-pyrazole-4 carboxamide]
1 to 30	CCS(=O)(=O)Nc1ccc(-c2n[nH]c(Nc3cccc(OCCOC)n3)c2C(N)=O)cc1OCc1ccc(F)cc1 [Compound 174, 3-(4-(ethylsulfonamido)-3-((4-fluorobenzyl)oxy)phenyl)-5-((6-(2-methoxyethoxy)pyridine-2-yl)amino)-1H-pyrazole-4-carboxamide]
> 30	CCS(=O)(=O)Nc1ccc(-c2n[nH]c(Nc3cccc(C(F)(F)F)n3)c2C(N)=O)cc1OCC1CCCCC1 [Compound 200]
> 30	CCS(=O)(=O)Nc1ccc(-c2n[nH]c(Nc3cnccn3)c2C(N)=O)cc1Oc1ccc(F)cc1 [Compound 19, 3-(4-(ethylsulfonamido)-3-(4-fluorophenoxy)phenyl)-5-(pyrazin-2-ylamino)-1H-pyrazole-4-carboxamide]
> 30	NC(=O)c1c(-c2ccc(NS(=O)(=O)CC(F)(F)F)c(OC3(c4ccccc4)CC3)c2)n[nH]c1Nc1cnccn1 [Compound 161, 3-(3-(1-phenylcyclopropoxy)-4-((2,2,2-trifluoroethyl)sulfonamido)phenyl)-5-(pyrazin-2-ylamino)-1H-pyrazole-4-carboxamide]

Kd [µM]	Structure (SMILES)
> 30	NC(=O)c1c(-c2ccc(NS(=O)(=O)CC3CCC3)cc2)n[nH]c1Nc1cnccn1 [Compound 81, 3-(4-((cyclobutylmethyl)sulfonamido)phenyl)-5-(pyrazin-2-ylamino)-1H-pyrazole-4-carboxamide]
1 to 30	NC(=O)c1c(-c2ccc(NS(=O)(=O)C(F)F)cc2)n[nH]c1Nc1cccc(C(F)(F)F)n1 [Compound 53, 3-(4-((difluoromethyl)sulfonamido)phenyl)-5-((6-(trifluoromethyl)pyridin-2-yl)amino)-1H-pyrazole-4-carboxamide]
> 30	CCS(=O)(=O)Nc1ccc(-c2n[nH]c(Nc3cncc(OC)n3)c2C(N)=O)cc1 [Compound 99, 3-(4-(ethylsulfonamido)phenyl)-5-((6-methoxypyrazin-2-yl)amino)-1H-pyrazole-4-carboxamide]
1 to 30	CCS(=O)(=O)Nc1ccc(-c2n[nH]c(Nc3cnc(C(C)C)cn3)c2C(N)=O)cc1 [Compound 66, 3-(4-(ethylsulfonamido)phenyl)-5-((5-isopropylpyrazin-2-yl)amino)-1H-pyrazole-4-carboxamide]
1 to 30	CCS(=O)(=O)Nc1ccc(-c2[nH]nc(Nc3ccnc(OCCOC)c3)c2C(N)=O)cc1 [Compound 127, 5-(4-(ethylsulfonamido)phenyl)-3-((2-(2-methoxyethoxy)pyridin-4-yl)amino)-1H-pyrazole-4-carboxamide]
1 to 30	COCCOc1cc(Nc2[nH]nc(-c3ccc(NS(C)(=O)=O)cc3)c2C(N)=O)ccn1 [Compound 122, 5-((2-(2-methoxyethoxy)pyridin-4-yl)amino)-3-(4-(methylsulfonamido)phenyl)-1H-pyrazole-4-carboxamide]
> 30	C[C@@H](Oc1cc(NS(=O)(=O)C(F)F)ccc1-c1n[nH]c(Nc2cnccn2)c1C(N)=O)c1ccc(F)cc1 [Compound 255, 3-[4-(difluoromethanesulfonamido)-2-[(1R)-1-(4-fluorophenyl)ethoxy]phenyl]-5-[(pyrazin-2-yl)amino]-1H-pyrazole-4-carboxamide]
> 30	NC(=O)c1c(-c2ccc(NS(=O)(=O)C(F)F)c(OC(c3ccc(F)cc3)C3CCC3)c2)n[nH]c1Nc1cnccn1 (stereo not drawn) [Compound 236, 3-{3-[cyclobutyl(4-fluorophenyl)methoxy]-4-(difluoromethanesulfonamido)phenyl}-5-[(pyrazin-2-yl)amino]-1H-pyrazole-4-carboxamide]
> 30	CCS(=O)(=O)Nc1ccc(-c2n[nH]c(Nc3cnc(C)cn3)c2C(N)=O)cc1 [Compound 101, 3-(4-(ethylsulfonamido)phenyl)-5-((5-methylpyrazin-2-yl)amino)-1H-pyrazole-4-carboxamide]
> 30	NC(=O)c1c(-c2ccc(NS(=O)(=O)C(F)F)c(OCc3ccc(F)cc3)c2)n[nH]c1Nc1cnccn1 [Compound 202, 3-(4-((difluoromethyl)sulfonamido)-3-((4-fluorobenzyl)oxy)phenyl)-5-(pyrazin-2-ylamino)-1H-pyrazole-4-carboxamide]
> 30	CC(C)(C)S(=O)(=O)Nc1ccc(-c2n[nH]c(Nc3cnccn3)c2C(N)=O)cc1 [Compound 69, 3-(4-((1,1-dimethylethyl)sulfonamido)phenyl)-5-(pyrazin-2-ylamino)-1H-pyrazole-4-carboxamide]
> 30	CCS(=O)(=O)Nc1ccc(-c2n[nH]c(Nc3cccc(C(F)(F)F)n3)c2C(N)=O)cc1OCc1ccc(F)cc1 [Compound 8, 3-(4-(ethylsulfonamido)-3-((4-fluorobenzyl)oxy)phenyl)-5-((6-(trifluoromethyl)pyridin-2-yl)amino)-1H-pyrazole-4-carboxamide]
> 30	C[C@H](Oc1cc(-c2n[nH]c(Nc3cc(C45CC6CC(CC(C6)C4)C5)on3)c2C(N)=O)ccc1NS(=O)(=O)C(F)F)c1ccc(F)cc1 [Compound 304, (S)-5-((5-(adamantan-1-yl)isoxazol-3-yl)amino)-3-(4-((difluoromethyl)sulfonamido)-3-(1-(4-fluorophenyl)ethoxy)phenyl)-1H-pyrazole-4-carboxamide]
> 30	CCS(=O)(=O)Nc1ccc(-c2n[nH]c(Nc3ccnc(C)c3)c2C(N)=O)cc1 [Compound 113, 3-(4-(ethylsulfonamido)phenyl)-5-((2-methylpyridin-4-yl)amino)-1H-pyrazole-4-carboxamide]
> 30	CCS(=O)(=O)Nc1ccc(-c2n[nH]c(Nc3cnccn3)c2C(N)=O)cc1OCc1c(C)cc(F)cc1C [Compound 142, 3-(4-(ethylsulfonamido)-3-((4-fluoro-2,6-dimethylbenzyl)oxy)phenyl)-5-(pyrazin-2-ylamino)-1H-pyrazole-4-carboxamide]
> 30	NC(=O)c1c(-c2ccc(NS(=O)(=O)CC(F)(F)F)cc2)n[nH]c1Nc1cnccn1 [Compound 137, 5-(pyrazin-2-ylamino)-3-(4-((2,2,2-trifluoroethyl)sulfonamido)phenyl)-1H-pyrazole-4-carboxamide]
